The source of these data is patent publication US8877771B2, “Treatment of solid tumors with rapamycin derivatives” (Novartis Pharmaceuticals Corporation, priority 2001, dated 2014).

The experiment has as its system B16/BL6 primary tumor and cervical lymph node metastases. The experiment is described as follows: Combination with an antiangiogenic agent (B16/BL6). Type of experiment: in vivo, C57BL/6 mice.

Regarding `CO[C@H]1C[C@@H]2CC[C@@H](C)[C@@](O)(O2)C(=O)C(=O)N2CCCC[C@H]2C(=O)O[C@H]([C@H](C)C[C@@H]2CC[C@@H](OCCO)[C@H](OC)C2)CC(=O)[C@H](C)/C=C(\C)[C@@H](O)[C@@H](OC)C(=O)[C@H](C)C[C@H](C)/C=C/C=C/C=C/1C` [Compound A, 40-O-(2-hydroxyethyl)-rapamycin], the “treated/controls ratio, metastases (interaction analysis)” value (metastases) amounted to 0.75. Where the note is “primary tumors”, the “treated/controls ratio, primary tumors (interaction analysis)” value worked out at 0.77.
